We go through 1 molecule from ChEMBL document CHEMBL4020829, “Structure-Activity Relationships and Computational Investigations into the Development of Potent and Balanced Dual-Acting Butyrylcholinesterase Inhibitors and Human Cannabinoid Receptor 2 Ligands with Pro-Cognitive in Vivo Profiles” (J Med Chem, 2018).

Chains of the proteins cited; added tags and fusions are not shown.
UniProt P21554, whole entry: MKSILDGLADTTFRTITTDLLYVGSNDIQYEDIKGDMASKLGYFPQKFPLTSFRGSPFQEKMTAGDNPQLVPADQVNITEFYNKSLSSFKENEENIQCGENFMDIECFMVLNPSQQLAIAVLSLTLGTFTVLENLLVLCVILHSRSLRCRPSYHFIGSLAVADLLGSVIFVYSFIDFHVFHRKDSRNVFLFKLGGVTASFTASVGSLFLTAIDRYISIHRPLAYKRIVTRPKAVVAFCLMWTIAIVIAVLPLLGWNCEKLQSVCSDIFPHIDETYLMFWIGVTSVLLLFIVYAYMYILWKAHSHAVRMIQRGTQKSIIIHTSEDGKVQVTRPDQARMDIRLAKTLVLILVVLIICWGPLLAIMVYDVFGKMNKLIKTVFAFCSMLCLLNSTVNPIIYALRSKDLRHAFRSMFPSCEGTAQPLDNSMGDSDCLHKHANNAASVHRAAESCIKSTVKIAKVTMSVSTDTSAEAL

Structures are written as SMILES.

Assay [1] addresses T1, Cannabinoid receptor 1 (Homo sapiens, UniProt P21554). The assay is described as follows: biochemical. Type of assay: cell-based.
The target in assay [2] is T1, Cannabinoid receptor 1. Nature of the assay: biochemical.

Broadly, the IC50 is the concentration at which inhibition is half-maximal. What is called Ki is the dissociation constant of the complex between target and ligand, obtained from inhibition or displacement. Take `Cc1ccc(Cn2nc(C(=O)N[C@@H]3C(C)(C)[C@@H]4CC[C@@]3(C)C4)cc2-c2ccc(Cl)c(C)c2)cc1`: at Cannabinoid receptor 1 [1], inhibition was half-maximal at 794 nM (IC50) and the affinity corresponds to a Ki of 687 nM. At Cannabinoid receptor 1 [2], this molecule gave a Ki of 254 nM.
